{"source": "patent US20240010729A1", "about": "“COMBINATION THERAPY OF A PD-1 ANTAGONIST AND LAG3 ANTAGONIST AND LENVATINIB OR A PHARMACEUTICALLY ACCEPTABLE SALT THEREOF FOR TREATING PATIENTS WITH CANCER” (MERCK SHARP & DOHME LLC, priority 2020, published 2024)", "system": "KPC-2838c3 pancreatic model", "assay": "KPC-2838c3 mouse syngeneic tumor model (tumor growth)", "assay_type": "in vivo, mouse (C57BL/6J)", "conditions": "FIG. 2"}
{"smiles": "COc1cc2nccc(Oc3ccc(NC(=O)NC4CC4)c(Cl)c3)c2cc1C(N)=O", "note": "[Lenvatinib, 4-[3-chloro-4-(cyclopropylaminocarbonyl)aminophenoxy]-7-methoxy-6-quinolinecarboxamide]", "values": [{"measurement": "anti-tumor efficacy (in words)", "value": "notable TGI"}]}
